IC50 data for three compounds are collected here from patent publication US8759366B2, “Aminopyrimidines as SYK inhibitors” (Merck Sharp & Dohme Corp., priority 2009, dated 2014).

One assay addresses rhSYK (Homo sapiens (Human), UniProt P43405). The following applies: tested form: TFA.
Assay [1] addresses recombinant human SYK (GST-hSYK fusion protein) (Homo sapiens (Human), UniProt P43405).

pIC50: −log10 of the molar value.

The term pIC50 denotes −log10 of the IC50, conventionally taken in molar units. Regarding `CC(=O)NS(=O)(=O)c1ccc(C(C)(O)c2ncc(-c3cc(C)cc(Nc4nccc(C(F)(F)F)n4)c3)s2)cc1` (stereo not drawn), at rhSYK, the pIC50 is above 7.00.
In the case of `CNC(=O)N1CCCC(O)(c2ncc(-c3cc(C)cc(Nc4nccc(C(F)(F)F)n4)c3)s2)CC1` (single isomer, unassigned), the pIC50 in assay [1] is above 7.00.
`COc1nc(Nc2cc(C)cc(-c3cnc(C4(O)CCCN(C(=O)OC(C)(C)C)CC4)s3)c2)ncc1Cl` (single isomer, unassigned): the pIC50 in assay [1] is 5.00 to 6.00.
